Experiment: Solubility Test-1: dissolution of ginkgo leaf extract dry powder in aqueous solution of the compound
Type: physicochemical
Conditions: 5 g compound in 100 ml water at 20° C., 10 g ginkgo leaf extract, shaken 10 minutes

Row | Compound | Dissolution state
1 | NCCO [Monoethanol amine] | .largecircle.
2 | Cl.N[C@@H](Cc1c[nH]cn1)C(=O)O [Histidine hydrochloride] | .largecircle.
